Experimental data from patent publication US20260382689A1, “METHODS OF PREVENTING AND/OR TREATING SIDE EFFECTS ASSOCIATED WITH ANTI-CANCER AGENTS USING NON-NATURALLY OCCURRING MELANOCORTIN ANALOGS WITH ANTI-GDF-15 ANTIBODIES” (published 2026).

Chains of the proteins cited; added tags and fusions are not shown.
UniProt P41968, whole entry: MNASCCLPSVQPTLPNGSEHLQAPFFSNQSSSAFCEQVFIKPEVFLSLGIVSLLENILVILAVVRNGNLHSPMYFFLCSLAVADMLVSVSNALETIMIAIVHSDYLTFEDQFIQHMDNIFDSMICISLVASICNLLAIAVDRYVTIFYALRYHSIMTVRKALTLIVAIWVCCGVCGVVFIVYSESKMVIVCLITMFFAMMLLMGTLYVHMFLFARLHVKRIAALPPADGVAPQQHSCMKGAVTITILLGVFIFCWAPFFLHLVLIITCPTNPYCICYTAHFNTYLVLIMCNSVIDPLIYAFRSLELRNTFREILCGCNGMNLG
UniProt P32245, whole entry: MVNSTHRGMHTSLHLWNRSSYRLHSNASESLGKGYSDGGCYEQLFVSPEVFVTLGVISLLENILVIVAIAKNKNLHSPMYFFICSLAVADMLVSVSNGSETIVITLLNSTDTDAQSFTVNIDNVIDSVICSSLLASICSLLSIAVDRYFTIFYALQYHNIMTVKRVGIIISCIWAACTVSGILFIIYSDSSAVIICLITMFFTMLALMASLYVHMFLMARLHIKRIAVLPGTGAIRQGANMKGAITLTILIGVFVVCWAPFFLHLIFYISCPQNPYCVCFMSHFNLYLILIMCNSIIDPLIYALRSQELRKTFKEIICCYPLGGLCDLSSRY
UniProt Q01726, whole entry: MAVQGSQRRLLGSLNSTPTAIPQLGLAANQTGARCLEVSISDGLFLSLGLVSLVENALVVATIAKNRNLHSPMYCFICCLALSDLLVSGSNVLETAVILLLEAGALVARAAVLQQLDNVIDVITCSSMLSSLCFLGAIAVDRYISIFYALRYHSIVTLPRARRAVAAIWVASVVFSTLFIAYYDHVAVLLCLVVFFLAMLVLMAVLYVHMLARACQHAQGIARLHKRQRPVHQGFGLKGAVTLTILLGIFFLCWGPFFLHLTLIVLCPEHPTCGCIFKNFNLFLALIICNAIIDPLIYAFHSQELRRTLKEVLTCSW

Columns and labels:
[1] = molecular target: human melanocortin 3 receptor (MC3R) (Homo sapiens, UniProt P41968); assay: cAMP accumulation assay (HTRF), antagonist and/or agonist activity at MC3R (Example 1, Table 12, FIGS. 1-4); conditions: MC3R, antagonist activity, dose-response, cAMP
[2] = molecular target: human melanocortin 4 receptor (MC4R) (Homo sapiens, UniProt P32245); assay: cAMP accumulation assay (HTRF), antagonist and/or agonist activity at MC4R (Example 1, Table 13, FIGS. 5-8); conditions: Table 13; dose-response against MC4R; cAMP
[3] = molecular target: melanocortin 1 receptor (MC1R) (Homo sapiens, UniProt Q01726); assay: cAMP accumulation assay (HTRF), agonist and/or antagonist activity at MC1R (Example 1, Table 11); conditions: dose-response, cAMP

Structure (SMILES) | IC50 [1] | IC50 [2] | EC50 [3]
CCCC[C@H](NC(C)=O)C(=O)N[C@@H]1C(=O)N[C@H](Cc2ccc3ccccc3c2)C(=O)N[C@@H](CCCNC(=N)N)C(=O)N[C@@H](Cc2c[nH]c3ccccc23)C(=O)N[C@@H](C(=O)N[C@@H](C(=O)N2CCC[C@@H]2C(N)=O)C(C)C)CSSC1(C)C | > 1000 nM | > 1000 nM | 
CCCC[C@H](NC(C)=O)C(=O)N[C@H]1CC(=O)NCCCC[C@@H](C(=O)N[C@@H](C(=O)N2CCC[C@@H]2C(N)=O)C(C)C)NC(=O)[C@@H](Cc2c[nH]c3ccccc23)NC(=O)[C@H](CCCNC(=N)N)NC(=O)[C@@H](Cc2ccc3ccccc3c2)NC(=O)[C@@H]2CCCN2C1=O |  |  | 35 nM
CCCC[C@H](NC(C)=O)C(=O)N[C@H]1CC(=O)NCCCC[C@@H](C(=O)N[C@@H](C(=O)N2CCC[C@@H]2C(N)=O)C(C)C)NC(=O)[C@H](CCCNC(=N)N)NC(=O)[C@@H](Cc2ccc3ccccc3c2)NC(=O)[C@@H]2CCCN2C1=O |  |  | 300 nM
CCCC[C@H](NC(C)=O)C(=O)N[C@H]1CC(=O)NCCCC[C@@H](C(=O)N[C@@H](CCCCN)C(=O)N[C@@H](C(=O)N2CCC[C@@H]2C(N)=O)C(C)C)NC(=O)[C@H](Cc2c[nH]c3ccccc23)NC(=O)[C@H](CCCNC(=N)N)NC(=O)[C@@H](Cc2ccc3ccccc3c2)NC(=O)[C@@H]2CCCN2C1=O | 1.21 nM | 8.2 nM | 1.7 nM
CCCC[C@H](NC(C)=O)C(=O)N[C@H]1CC(=O)NCCCC[C@@H](C(=O)N[C@@H](CCCNC(=N)N)C(N)=O)NC(=O)[C@H](Cc2c[nH]c3ccccc23)NC(=O)[C@H](CCCNC(=N)N)NC(=O)[C@@H](Cc2ccc3ccccc3c2)NC(=O)[C@@H]2CCCN2C1=O | 0.54 nM | 11 nM | 0.33 nM
CCCC[C@H](NC(C)=O)C(=O)N[C@H]1CC(=O)NCCCC[C@@H](C(=O)N[C@@H](C)C(=O)N[C@@H](C)C(N)=O)NC(=O)[C@H](Cc2c[nH]c3ccccc23)NC(=O)[C@H](CCCNC(=N)N)NC(=O)[C@@H](Cc2ccc3ccccc3c2)NC(=O)[C@@H]2CCCN2C1=O | 2.15 nM | 58 nM | 3.3 nM
CCCC[C@H](NC(C)=O)C(=O)N[C@H]1CC(=O)NCCCC[C@@H](C(=O)N[C@H](CCCNC(=N)N)C(=O)N2CCC[C@@H]2C(=O)N[C@@H](C(N)=O)C(C)C)NC(=O)[C@H](Cc2c[nH]c3ccccc23)NC(=O)[C@H](CCCNC(=N)N)NC(=O)[C@@H](Cc2ccc3ccccc3c2)NC(=O)[C@@H]2CCCN2C1=O | 1.03 nM | 22 nM | 4.7 nM
CCCC[C@H](NC(C)=O)C(=O)N[C@H]1CC(=O)NCCCC[C@@H](C(=O)N[C@H](C)C(N)=O)NC(=O)[C@H](Cc2c[nH]c3ccccc23)NC(=O)[C@H](CCCNC(=N)N)NC(=O)[C@@H](Cc2ccc3ccccc3c2)NC(=O)[C@@H]2CCCN2C1=O |  |  | 4.8 nM
CCCC[C@H](NC(C)=O)C(=O)N[C@@H]1CSSC[C@H](C(=O)N[C@@H](C(=O)N2CCC[C@@H]2C(N)=O)C(C)C)NC(=O)[C@H](Cc2c[nH]c3ccccc23)NC(=O)[C@H](CCCNC(=N)N)NC(=O)[C@@H](Cc2ccc3ccccc3c2)NC1=O |  |  | > 1000 nM
CCCC[C@H](NC(C)=O)C(=O)N[C@H]1C(=O)N2CCC[C@H]2C(=O)N[C@H](Cc2ccc3ccccc3c2)C(=O)N[C@@H](CCCNC(=N)N)C(=O)N[C@@H](Cc2c[nH]c3ccccc23)C(=O)N[C@@H](C(=O)N[C@@H](C(=O)N2CCC[C@@H]2C(N)=O)C(C)C)C(C)(C)SSC1(C)C |  |  | > 1000 nM
CCCC[C@H](NC(C)=O)C(=O)N[C@H]1CC(=O)NCCCC[C@@H](C(=O)N[C@@H](C(=O)N2CCC[C@@H]2C(N)=O)C(C)C)NC(=O)[C@H](Cc2c[nH]c3ccccc23)NC(=O)[C@H](CCCNC(=N)N)NC(=O)[C@@H](Cc2ccc3ccccc3c2)NC(=O)[C@@H](CCSC)NC1=O |  |  | 130 nM
CCCC[C@H](NC(C)=O)C(=O)N[C@H]1CC(=O)NCCCC[C@@H](C(=O)N[C@@H](C(=O)N[C@H](CC(N)=O)C(N)=O)C(C)C)NC(=O)[C@H](Cc2c[nH]c3ccccc23)NC(=O)[C@H](CCCNC(=N)N)NC(=O)[C@@H](Cc2ccc3ccccc3c2)NC(=O)[C@@H]2CCCN2C1=O |  |  | 11 nM
CCCC[C@H](NC(C)=O)C(=O)N[C@H]1CC(=O)NCCCC[C@@H](C(=O)NCC(=O)NCC(N)=O)NC(=O)[C@H](Cc2c[nH]c3ccccc23)NC(=O)[C@H](CCCNC(=N)N)NC(=O)[C@@H](Cc2ccc3ccccc3c2)NC(=O)[C@@H]2CCCN2C1=O |  |  | 2.2 nM
CCCC[C@H](NC(C)=O)C(=O)N[C@H]1CC(=O)NCCCC[C@@H](C(=O)N[C@@H](C(=O)N2CCC[C@@H]2C(N)=O)C(C)C)NC(=O)[C@H](Cc2c[nH]cn2)NC(=O)[C@H](CCCNC(=N)N)NC(=O)[C@@H](Cc2ccc3ccccc3c2)NC(=O)[C@@H]2CCCN2C1=O |  |  | > 1000 nM
CCCC[C@@H](NC(C)=O)C(=O)N[C@H]1CC(=O)NCCCC[C@@H](C(=O)N[C@@H](C(=O)N2CCC[C@@H]2C(N)=O)C(C)C)NC(=O)[C@H](Cc2c[nH]c3ccccc23)NC(=O)[C@H](CCCNC(=N)N)NC(=O)[C@@H](Cc2ccc3ccccc3c2)NC(=O)[C@@H]2CCCN2C1=O |  |  | 49 nM
CCCC[C@H](NC(C)=O)C(=O)N[C@H]1CC(=O)NCCCC[C@@H](C(=O)N[C@H](C(=O)N2CCC[C@H]2C(N)=O)C(C)C)NC(=O)[C@H](Cc2c[nH]c3ccccc23)NC(=O)[C@H](CCCNC(=N)N)NC(=O)[C@@H](Cc2ccc3ccccc3c2)NC(=O)[C@@H]2CCCN2C1=O |  |  | 0.15 nM

Structure (SMILES) | IC50 [1] | IC50 [2] | EC50 [3]
CCCC[C@H](NC(C)=O)C(=O)N[C@H]1CC(=O)NCCCC[C@@H](C(=O)N[C@@H](C)C(N)=O)NC(=O)[C@H](Cc2c[nH]c3ccccc23)NC(=O)[C@H](CCCNC(=N)N)NC(=O)[C@@H](Cc2ccc3ccccc3c2)NC(=O)[C@@H]2CCCN2C1=O |  |  | 4.1 nM
CCCC[C@H](NC(C)=O)C(=O)N[C@H]1CC(=O)NCCCC[C@@H](C(=O)N[C@@H](CC(N)=O)C(N)=O)NC(=O)[C@H](Cc2c[nH]c3ccccc23)NC(=O)[C@H](CCCNC(=N)N)NC(=O)[C@@H](Cc2ccc3ccccc3c2)NC(=O)[C@@H]2CCCN2C1=O |  |  | 3.8 nM
CCCC[C@H](NC(C)=O)C(=O)N[C@H]1CC(=O)NCCCC[C@@H](C(=O)N[C@@H](CCCCN)C(=O)N2CCC[C@H]2C(=O)N[C@H](C(N)=O)C(C)C)NC(=O)[C@H](Cc2c[nH]c3ccccc23)NC(=O)[C@H](CCCNC(=N)N)NC(=O)[C@@H](Cc2ccc3ccccc3c2)NC(=O)[C@@H]2CCCN2C1=O |  |  | 0.15 nM
CCCC[C@H](NC(C)=O)C(=O)N[C@H]1CC(=O)NCCCC[C@@H](C(=O)N[C@@H](C(=O)N2CCC[C@@H]2C(N)=O)C(C)C)NC(=O)[C@H](Cc2c[nH]c3ccccc23)NC(=O)[C@H](CCCNC(=N)N)NC(=O)[C@@H](Cc2ccc3ccccc3c2)NC1=O |  |  | 930 nM
CCCC[C@H](NC(C)=O)C(=O)N[C@@H]1CC(=O)NCCCC[C@@H](C(=O)N[C@@H](C(=O)N2CCC[C@@H]2C(N)=O)C(C)C)NC(=O)[C@H](Cc2c[nH]c3ccccc23)NC(=O)[C@H](CCCNC(=N)N)NC(=O)[C@@H](Cc2ccc3ccccc3c2)NC(=O)[C@@H]2CCCN2C1=O |  |  | 4.2 nM
CCCC[C@H](NC(C)=O)C(=O)N[C@H]1CC(=O)NCCCC[C@@H](C(=O)N[C@H](CC(N)=O)C(N)=O)NC(=O)[C@H](Cc2c[nH]c3ccccc23)NC(=O)[C@H](CCCNC(=N)N)NC(=O)[C@@H](Cc2ccc3ccccc3c2)NC(=O)[C@@H]2CCCN2C1=O |  |  | 10 nM
CCCC[C@H](NC(C)=O)C(=O)N[C@H]1CC(=O)NCCCC[C@@H](C(=O)N[C@@H](C(=O)N2CCC[C@@H]2C(N)=O)C(C)C)NC(=O)[C@H](Cc2c[nH]c3ccccc23)NC(=O)[C@H](CCCNC(=N)N)NC(=O)[C@@H](Cc2ccc3ccccc3c2)NC(=O)[C@H]2CCCN2C1=O |  |  | 510 nM
CCCC[C@H](NC(C)=O)C(=O)N[C@H]1CC(=O)NCCCC[C@@H](C(=O)N2CCC[C@H]2C(N)=O)NC(=O)[C@H](Cc2c[nH]c3ccccc23)NC(=O)[C@H](CCCNC(=N)N)NC(=O)[C@@H](Cc2ccc3ccccc3c2)NC(=O)[C@@H]2CCCN2C1=O |  |  | 64 nM
CCCC[C@H](NC(C)=O)C(=O)N[C@H]1C(=O)N2CCC[C@H]2C(=O)N[C@H](Cc2ccc3ccccc3c2)C(=O)N[C@@H](CCCNC(=N)N)C(=O)N[C@@H](Cc2c[nH]c3ccccc23)C(=O)N[C@H](C(=O)N[C@@H](C(=O)N2CCC[C@@H]2C(N)=O)C(C)C)C(C)(C)SSC1(C)C |  |  | 4.6 nM
CCCC[C@H](NC(C)=O)C(=O)N[C@H]1CC(=O)NCCCC[C@H](C(=O)N[C@@H](C(=O)N2CCC[C@@H]2C(N)=O)C(C)C)NC(=O)[C@H](Cc2c[nH]c3ccccc23)NC(=O)[C@H](CCCNC(=N)N)NC(=O)[C@@H](Cc2ccc3ccccc3c2)NC(=O)[C@@H]2CCCN2C1=O |  |  | 970 nM
CCCC[C@H](NC(C)=O)C(=O)N[C@H]1CC(=O)NCCCC[C@@H](C(=O)N2CCC[C@@H]2C(N)=O)NC(=O)[C@H](Cc2c[nH]c3ccccc23)NC(=O)[C@H](CCCNC(=N)N)NC(=O)[C@@H](Cc2ccc3ccccc3c2)NC(=O)[C@@H]2CCCN2C1=O |  |  | 150 nM
CCCC[C@H](NC(C)=O)C(=O)N[C@H]1CSSC[C@@H](C(=O)N[C@@H](C(=O)N2CCC[C@@H]2C(N)=O)C(C)C)NC(=O)[C@H](Cc2c[nH]c3ccccc23)NC(=O)[C@H](CCCNC(=N)N)NC(=O)[C@@H](Cc2ccc3ccccc3c2)NC1=O |  |  | > 1000 nM
CCCC[C@H](NC(C)=O)C(=O)N[C@H]1CSSC[C@H](C(=O)N[C@@H](C(=O)N2CCC[C@@H]2C(N)=O)C(C)C)NC(=O)[C@H](Cc2c[nH]c3ccccc23)NC(=O)[C@H](CCCNC(=N)N)NC(=O)[C@@H](Cc2ccc3ccccc3c2)NC1=O |  |  | > 1000 nM
CCCC[C@H](NC(C)=O)C(=O)N[C@@H]1CSSC[C@@H](C(=O)N[C@@H](C(=O)N2CCC[C@@H]2C(N)=O)C(C)C)NC(=O)[C@H](Cc2c[nH]c3ccccc23)NC(=O)[C@H](CCCNC(=N)N)NC(=O)[C@@H](Cc2ccc3ccccc3c2)NC(=O)[C@@H]2CCCN2C1=O |  |  | 0.59 nM
CCCC[C@H](NC(C)=O)C(=O)N[C@H]1CC(=O)NCCCC[C@@H](C(=O)N2CCC[C@@H]2C(=O)N2CCC[C@@H]2C(N)=O)NC(=O)[C@H](Cc2c[nH]c3ccccc23)NC(=O)[C@H](CCCNC(=N)N)NC(=O)[C@@H](Cc2ccc3ccccc3c2)NC(=O)[C@@H]2CCCN2C1=O |  |  | 86 nM
